Curated experimental data: properties

Source: data files of OPERA 2.9 (Mansouri et al.), github.com/kmansouri/OPERA.

Melting points are in °C. The boiling point refers to atmospheric pressure (760 mmHg), by the definition of the set. The octanol-water partition coefficient is given as log10; larger values mean a more lipophilic compound. Water solubility is log10 of mol/L, nominally at 25 °C; higher is more soluble. Vapor pressures (log10 mmHg) refer to near room temperature, 15 to 30 °C; higher is more volatile. Henry's law constant (air-water partitioning) is log10 of atm·m3/mol, nominally at 25 °C. Intrinsic clearance (human, µL/min per 10^6 hepatocytes): higher is faster turnover, and 0 stands for none detected. "n/a" marks a cell with nothing listed here.

SMILES	name	MP (°C)	BP (°C)	log Kow	water solubility (log10 mol/L)	log VP (log10 mmHg)	log H (log10 atm·m3/mol)	hepatic Clint (µL/min/10^6 cells)
COc1cc(Br)c(CN(C=O)CCc2ccc(O)cc2)cc1O	n/a	162.3	n/a	2.7	-5.047	-9.907	n/a	n/a
CCC1OC(C)=C(O)C1=O (centres undefined)	3(2H)-Furanone, 2-ethyl-4-hydroxy-5-methyl-	-10	n/a	0.9	n/a	n/a	n/a	n/a
CCOC(=O)C1CC(=O)C(=C(O)C2CC2)C(=O)C1 (centres undefined)	Trinexapac-ethyl	n/a	n/a	n/a	-3.171	n/a	-8.273	3.82
CCCCCC#CC(=O)OC	Methyl 2-octynoate	n/a	n/a	3	-3.009	-1.041	n/a	n/a
OCC(Br)=C(Br)CO	2,3-Dibromo-2-butene-1,4-diol	n/a	n/a	0.31	n/a	-4.288	n/a	n/a
CC(CC(=O)O)n1nc2ccccc2n1 (centres undefined)	3-(2H-Benzotriazol-2-yl)butanoic acid	82.5	n/a	0.34	n/a	n/a	n/a	n/a
C=CCCCC=CCOC	1-Methoxy-2,7-octadiene	n/a	173	2.98	-2.615	0.033	n/a	n/a
Cc1c(N=Nc2cccc(OS(=O)(=O)c3ccccc3)c2)c(O)n(C)c(=O)c1C#N	n/a	200	n/a	5.39	-8.783	n/a	n/a	n/a
CCCCCCCCC(CCCCCC)C(=O)OCC(=O)Nc1ccc(-c2nn3nc(C(C)(C)C)c(Cl)c3[nH]2)cc1 (centres undefined)	n/a	167	n/a	n/a	-8.166	-4.347	n/a	n/a
CC(=O)C1CCc2cc(F)ccc2O1 (centres undefined)	1-(6-Fluoro-3,4-dihydro-2H-chromen-2-yl)ethanone	-65.5	n/a	n/a	-2.294	-2.684	n/a	n/a
CC(C)(C)OC(=O)N[C@@H](Cc1ccccc1)[C@@H](O)CN(Cc1ccc(-c2ccccn2)cc1)NC(=O)OC(C)(C)C	n/a	n/a	n/a	3.9	-6.058	-11.78	n/a	n/a
CCCCCCCCSCc1cc(C)c(O)c(CSCCCCCCCC)c1	2-Methyl-4,6-bis[(octylthio)methyl]phenol	14.07	n/a	n/a	-5.327	-6.824	n/a	n/a
CCCOC(C)OCCc1ccccc1 (centres undefined)	[2-(1-Propoxyethoxy)ethyl]benzene	n/a	n/a	4.1	-3.384	-2.347	n/a	n/a
CO[Si](C)(CCCS[Si](C)(C)C(C)(C)C)OC	3-(tert-Butyldimethylsilylthio)propyldimethoxymethylsilane	n/a	289.9	n/a	n/a	-2.435	n/a	n/a
CN1CCSC1=S	2-Thiazolidinethione, 3-methyl-	70.28	n/a	0.59	-1.562	-2.933	n/a	n/a
O=C1c2ccccc2C(=O)c2c1ccc1nc(-c3cc(Cl)c(-c4nc5ccc6c(c5[nH]4)C(=O)c4ccccc4C6=O)cc3Cl)[nH]c21	n/a	n/a	n/a	-0.1	-4.525	n/a	n/a	n/a
CC[C@]1(C/C=C2\CCCc3cc(OC)ccc32)C(=O)CC[C@@H]1O	n/a	73.8	n/a	3.6	-4.123	-8.347	n/a	n/a
CC(C)(CO)C1OCC2(CO1)COC(C(C)(C)CO)OC2 (centres undefined)	n/a	n/a	n/a	1.63	-3.258	n/a	n/a	n/a
N#CCC(=O)Nc1ccccc1Cl	N-(2-chlorophenyl)-2-cyanoacetamide	125	n/a	n/a	-2.298	n/a	n/a	n/a
CC1(C)COCN1	4,4-Dimethyl oxazolidine	-67.8	n/a	n/a	0.694	n/a	n/a	n/a
CC(=O)CCCC(C)CCCC(C)CCCC(C)C (centres undefined)	2-pentadecanone, 6,10,14-trimethyl-	-78	n/a	n/a	-5.475	n/a	n/a	n/a
C[C@@]12CCC(=O)C=C1CC[C@H]1[C@H]2CC[C@]2(C)[C@@H]1CC[C@]21CCC(=O)O1	6,7-Dihydrocanrenone	158	n/a	n/a	-4.225	-11.37	n/a	n/a
Cc1cc(/N=N/c2c(O)c(C(=O)[O-])cc3ccccc23)c(S(=O)(=O)[O-])cc1Cl.[Sr+2]	n/a	n/a	n/a	1.22	-7.528	n/a	n/a	n/a
C=CC(C)(C#CC1(O)C(C)=C2OC(C)OC2CC1(C)C)OC(C)OCC (centres undefined)	n/a	-17	n/a	3.37	-2.607	-5.824	n/a	n/a
COc1ccc2c(c1)CCCC2	1,2,3,4-Tetrahydro-6-methoxynaphthalene	n/a	n/a	4.1	-2.748	n/a	n/a	n/a
O=C(O)[C@H]1/C(=C/CO)O[C@@H]2CC(=O)N21	Clavulanic acid	n/a	n/a	-1.5	0.179	n/a	n/a	n/a
Cc1ccc(N)c(Cl)c1O	5-Amino-6-chloro-o-cresol	n/a	n/a	1.644	n/a	-3.34	n/a	n/a
CC(C)N(C)C	N,N-Dimethylisopropylamine	n/a	n/a	0.89	n/a	2.176	n/a	n/a

The last 2 entries again:

{"smiles": "Cc1ccc(N)c(Cl)c1O", "name": "5-Amino-6-chloro-o-cresol", "log Kow": "1.644", "log VP (log10 mmHg)": "-3.34"}
{"smiles": "CC(C)N(C)C", "name": "N,N-Dimethylisopropylamine", "log Kow": "0.89", "log VP (log10 mmHg)": "2.176"}

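These are experimental values that the OPERA curators gathered from public databases to train and test their QSAR models. A listed value is a point estimate from one report or more. Method, purity and exact conditions of the single measurements are not given. A value may pool stereoisomers or salt forms, and the file does not say which form was measured. Some entries may be limits or estimates that an upstream database listed as plain numbers.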